This note sets out measurements from patent US10981926B2 (Janssen Pharmaceutica NV, priority 2016, dated 2021).

Protein sequences, listed by entry. Tags and fused reporters are not part of them.
UniProt P10275, whole entry F877L: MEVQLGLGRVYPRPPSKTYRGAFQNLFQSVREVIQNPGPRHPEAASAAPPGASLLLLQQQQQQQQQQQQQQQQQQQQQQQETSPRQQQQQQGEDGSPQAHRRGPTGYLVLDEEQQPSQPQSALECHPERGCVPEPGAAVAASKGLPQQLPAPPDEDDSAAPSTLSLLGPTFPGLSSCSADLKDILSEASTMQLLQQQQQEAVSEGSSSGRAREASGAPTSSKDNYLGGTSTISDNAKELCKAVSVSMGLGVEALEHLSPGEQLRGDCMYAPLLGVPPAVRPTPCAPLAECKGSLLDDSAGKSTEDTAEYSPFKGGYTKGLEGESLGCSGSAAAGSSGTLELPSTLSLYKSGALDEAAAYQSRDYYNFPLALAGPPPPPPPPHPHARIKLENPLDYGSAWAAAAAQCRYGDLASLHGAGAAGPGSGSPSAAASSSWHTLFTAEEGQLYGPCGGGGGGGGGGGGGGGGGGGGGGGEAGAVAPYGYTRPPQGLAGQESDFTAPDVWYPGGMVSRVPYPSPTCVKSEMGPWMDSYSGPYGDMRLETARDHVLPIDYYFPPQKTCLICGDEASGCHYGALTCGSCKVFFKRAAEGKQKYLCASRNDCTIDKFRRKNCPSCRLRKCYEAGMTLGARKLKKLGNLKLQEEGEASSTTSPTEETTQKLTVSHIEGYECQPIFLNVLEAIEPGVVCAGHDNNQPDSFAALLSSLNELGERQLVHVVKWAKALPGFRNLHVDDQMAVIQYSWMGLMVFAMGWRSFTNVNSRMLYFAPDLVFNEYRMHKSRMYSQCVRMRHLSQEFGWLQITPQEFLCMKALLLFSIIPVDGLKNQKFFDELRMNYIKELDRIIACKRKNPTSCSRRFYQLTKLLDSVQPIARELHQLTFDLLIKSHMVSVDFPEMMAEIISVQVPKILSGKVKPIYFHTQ

pEC50: −log10 of the molar value. Bounds are passed on as bounds.

Common to all, as to type: cell-based
In assay [1] the target is T1, wild-type Androgen Receptor (AR-wt) (Homo sapiens (Human), UniProt P10275). Kind of assay: LNCaP-AR-wt ANT reporter assay (antagonist mode). The note with it: read-out: LNCaP-AR-wt ANT MAX % Inh.
The target of assay [2] is T1, wild-type Androgen Receptor (AR-wt). The assay can be described thus: LNCaP-AR-wt AG reporter assay (agonist mode). The note with it: for Emax: read-out: LNCaP-AR-wt AG MAX % Stim. In general terms: A reporter such as luciferase makes a cellular process visible.
Assay [3] deals with T2, F876L mutant Androgen Receptor (AR-F876L) (Homo sapiens (Human), UniProt P10275, F877L). The assay can be described thus: LNCaP-AR-F876L AG reporter assay (agonist mode). The following applies: for Emax: read-out: LNCaP-AR-F876L AG MAX % Stim.
Assay [4] deals with T2, F876L mutant Androgen Receptor (AR-F876L). The assay can be described thus: LNCaP-AR-F876L ANT reporter assay (antagonist mode). The note with it: read-out: LNCaP-AR-F876L ANT MAX % Inh.
Where [5] appears, read: agonist mode, pEC50 = −Log10(EC50 in Molar).
Setting [6] is: maximum % stimulation (agonist response) over the tested concentration range.

With `CNC(=S)c1ccc(N2C(=S)N(c3cnc(C#N)c(C(F)(F)F)c3)C(=O)C23CCC3)cc1F` [Cpd 11, 4-(7-(6-cyano-5-(trifluoromethyl)pyridin-3-yl)-8-oxo-6-thioxo-5,7-diazaspiro[3.4]octan-5-yl)-2-fluoro-N-methylbenzothioamide], the Emax came to 99.4% in assay [1], 2.8% in assay [2], 2% in assay [3] and 95.3% in assay [4].

By pEC50 is commonly meant −log10 of the EC50, conventionally taken in molar units. A low value points to a large EC50. As to `N#Cc1ncc(N2C(=O)C3(CCC3)N(c3ccc(Br)cc3)C2=S)cc1C(F)(F)F` [Cpd 28, 5-[8-(4-bromophenyl)-5-oxo-7-thioxo-6,8-diazaspiro[3.4]octan-6-yl]-3-(trifluoromethyl)pyridine-2-carbonitrile], the negative logarithm of the EC50 (pEC50) in assay [2] (setting [5]) and in assay [3] (setting [5]) was under 4.82 each time. Further, the Emax in assay [2] (setting [6]) is 0.2%; in assay [3] (setting [6]), 0.8%.
